The target in one experiment is T1, subtype M of human STING (Homo sapiens, UniProt Q86WV6).
T1 construct: expressed in transfected cells
As to the kind of experiment: type 1 interferon promoter luciferase reporter in STING-lacking cell lines transduced with subtype M of human STING. The format is cell-based. The text has this: (§1) The cell lines for stably expressing each subtype of STING were constructed by transducing subtypes 1 and 3 of mouse STING and subtypes 1 and M of human STING into different cell lines lack of STING with lentivirus. Meanwhile, these cell lines stably expressed reporter luciferase mediated by the promoter of type 1 interferon. The content of type 1 interferon within the cells or supernatants could be directly detected after adding these cell lines to the medium or the medium with 30 M extracellular cyclic dinucleotides c-di-AMP or transfecting c-di-AMP into cells by using lipofectamine 2000 for 16 hours, or cells were lysed and mixed with the substrate of the luciferase. The fluorescence intensities were read out. The ratio of the fluorescence intensities from the same cells with or without c-di-AMP was used to reflect increase of the fluorescence intensities obtained after adding c-di-AMP.
In general terms: A reporter such as luciferase makes a cellular process visible.

Amino acid sequences for entries named in this document (tags omitted). Residues count along the entry.
UniProt Q86WV6, 120-379: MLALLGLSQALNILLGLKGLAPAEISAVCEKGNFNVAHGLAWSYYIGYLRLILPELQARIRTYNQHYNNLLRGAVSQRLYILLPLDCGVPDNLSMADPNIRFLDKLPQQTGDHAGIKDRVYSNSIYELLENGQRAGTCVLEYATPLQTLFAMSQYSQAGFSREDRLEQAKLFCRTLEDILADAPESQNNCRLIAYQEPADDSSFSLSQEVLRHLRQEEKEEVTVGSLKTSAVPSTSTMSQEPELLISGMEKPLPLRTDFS

For the next experiment, the target named is T2, subtype 1 of human STING (Homo sapiens, UniProt Q86WV6).
T2 construct: expressed in transfected cells
Description: type 1 interferon promoter luciferase reporter in STING-lacking cell lines transduced with subtype 1 of human STING. The conditions noted are these: c-di-AMP transfected into cells using lipofectamine 2000, 16 hours. Format: cell-based.
Source text: as §1

With `Nc1ncnc2c1ncn2[C@@H]1O[C@@H]2COP(=O)(O)O[C@H]3[C@@H](O)[C@H](n4cnc5c(N)ncnc54)O[C@@H]3COP(=O)(O)O[C@H]2[C@H]1O` [c-di-AMP], the “sensing of extracellular cyclic dinucleotide (ratio of fluorescence intensities with or without c-di-AMP)” value on subtype M of human STING (30 M extracellular c-di-AMP in medium, 16 hours) is reported as “sense extracellular cyclic dinucleotides”. Also, the “sensing of intracellular c-di-AMP (ratio of fluorescence intensities with or without c-di-AMP)” value at subtype M of human STING (c-di-AMP transfected into cells using lipofectamine 2000, 16 hours) is “could sense intracellular c-di-AMP”; at subtype 1 of human STING it was “could sense intracellular c-di-AMP”.

Source of the values: patent publication US20240019418A1, “RECEPTORS FOR CYCLIC DINUCLEOTIDES AND METHODS FOR SCREENING AGONISTS OR INHIBITORS THEREOF” (GUANGZHOU WINKEY TECHNOLOGY CO., LTD., priority 2017, published 2024).
